Results taken from patent US20050222258A1, “Pharmaceuticals comprising shikonins as active constituent” (priority 2003, published 2005).
Values after ≈ are worked out from the molar mass of the structure shown.

Target: HIV-1 reverse transcriptase (Human immunodeficiency virus type 1 group M subtype B, UniProt P04585)
Test: invitro test resisting HIV-1 reverse transcriptase

Structure (SMILES): O=C(O)P(=O)(O)O [PFA]
- IC50, Resisting HIV reverse transcriptase: 0.097 µg/mL (≈ 0.77 µM)
